Experimental data as given in ChEMBL document CHEMBL1926558, “Searching for the Multi-Target-Directed Ligands against Alzheimer's disease: discovery of quinoxaline-based hybrid compounds with AChE, H₃R and BACE 1 inhibitory activities” (Bioorg Med Chem, 2011).

Sequences of proteins named here, by UniProt entry; tags and fusion partners are left off. A change or cut given only in a name is not applied to a line headed by its entry.
UniProt Q9Y5N1: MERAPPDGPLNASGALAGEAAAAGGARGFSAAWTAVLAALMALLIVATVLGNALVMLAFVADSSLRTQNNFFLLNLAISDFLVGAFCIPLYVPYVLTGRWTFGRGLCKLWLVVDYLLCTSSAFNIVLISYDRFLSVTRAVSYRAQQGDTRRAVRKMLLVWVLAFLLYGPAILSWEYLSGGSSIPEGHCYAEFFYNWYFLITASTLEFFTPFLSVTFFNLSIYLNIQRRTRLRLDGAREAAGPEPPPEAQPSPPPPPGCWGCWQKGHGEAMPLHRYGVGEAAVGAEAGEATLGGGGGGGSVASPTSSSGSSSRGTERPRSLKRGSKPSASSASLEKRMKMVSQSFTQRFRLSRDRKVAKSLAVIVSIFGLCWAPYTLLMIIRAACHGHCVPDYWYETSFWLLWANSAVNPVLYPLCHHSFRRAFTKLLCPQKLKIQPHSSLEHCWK

These compounds were tested against Histamine H3 receptor (Homo sapiens, UniProt Q9Y5N1) (assay: Antagonist activity at histamine H3 receptor expressed in HEK293 cells co-transfected with pCRE-Luc gene assessed as inhibition of forskolin/histamine-induced cAMP accumulation at 1 uM after 5 hrs by luciferase reporter gene assay).
Assay type: functional, cell-based

| SMILES | inhibition |
| --- | --- |
| Nc1nc2ccccc2nc1/N=C/c1ccc(CN2CCCCC2)cc1 | 0.5% |
| Nc1nc2ccccc2nc1CNc1ccc(CN2CCCCC2)cc1 | 78.2% |
| Nc1nc2ccccc2nc1NCC(=O)Nc1ccc(CN2CCCCC2)cc1 | 15% |
| Nc1nc2ccccc2nc1NCC(=O)Nc1ccc(CN2CCCC2)cc1 | 16.9% |
| CCN(CC)Cc1ccc(OCCNc2nc3ccccc3nc2N)cc1 | 65.5% |
| Nc1nc2ccccc2nc1NCCOc1ccc(CN2CCCCC2)cc1 | 82.3% |
| Nc1nc2ccccc2nc1NCCCOc1ccc(CN2CCCCC2)cc1 | 40.5% |
| Nc1nc2ccccc2nc1C(=O)NC1CCN(Cc2ccccc2)CC1 | 1.8% |
| Nc1nc2ccccc2nc1C(=O)Nc1ccc(CN2CCCCC2)cc1 | 34.6% |
| Nc1nc2ccccc2nc1NCc1ccc(CN2CCCCC2)cc1 | 0.2% |
| Nc1nc2ccccc2nc1NC(=O)C1CCN(Cc2ccccc2)CC1 | 0.6% |
| CN1CCN(Cc2ccc(OCCNc3nc4ccccc4nc3N)cc2)CC1 | 7.4% |
